# Data from publication PMC10295865.
# Molecular target: N-terminal region of Gaussia princeps luciferase (Gluc) sequence-tagged UBL3 (NGluc-UBL3) (not stated (RefSeq NM_007106 is a human entry)) (UniProt O95164)
# Assay: split reporter (BiFC, NanoBiT); Gaussia princeps split luciferase complementation assay as drug screen; HEK293 cells transfected with NGluc-UBL3 and α-syn-CGluc, 96-well plates, DMEM (10% FBS); cells treated for 48 h with drugs (1 and 10 uM) or MPP+ (50-600 uM), DMSO as control; luminescence of the cell culture medium, normalised to DMSO and divided by cell viability (MTT)
substance,measurement,value
C-terminal region of Gluc sequence-tagged α-syn (α-syn-CGluc) (from UniProt P37840-1 1-140) (natural protein),"ratio of luminescence to cell viability relative to DMSO, with 1 uM erlotinib",0.73
same,"ratio of luminescence to cell viability relative to DMSO, with 1 uM gemcitabine",1.37
same,"ratio of luminescence to cell viability relative to DMSO, with 10 uM erlotinib",0.72
same,"ratio of luminescence to cell viability relative to DMSO, with 10 uM gemcitabine",1.53
same,"ratio of luminescence to cell viability relative to DMSO, with 10 uM osimertinib",0.55
